Assay outcomes as filed in PubChem BioAssay.
Shown are actives, neighbours in structure and some others; about 4.2% of the full set was active somewhere.
MC4R antag cAMP – blocks human MC4R cAMP signaling. hit rate 0.48% among 360,000. P32245. MC4R-expressing cells, MTII-stimulated cAMP, LANCE TR-FRET. inhibition, % at 6.5 µM;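 active means inhibition above its plate's cutoff, the mean of tested wells on that plate plus 3 SD, cut at about 29% in these data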;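 further: 0% = Melanotan II alone and 100% = Melanotan II plus saturating MCL0020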
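system = U2OS cells with stable human MC4R expression | also added = Melanotan II challenge after compound preincubation | dosing = one concentration, 6.5 µM nominal | incubation = compound 30 min, challenge 1 h, detection 1 h | measured by = TR-FRET with Eu-cAMP and labeled anti-cAMP, 671 nm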
HDAC3 inh – human HDAC3 inhibition | inhibition, % at 8.3 µM | AID 2718 | hit rate 0.15% among 320,000 | recombinant HDAC3, fluorogenic peptide/trypsin coupled, fluorescence | O15379; in the data active means inhibition above about 26%, passing the limit was not always enough
NALP1 yeast inh – NALP1 inhibition; S. cerevisiae NALP1/ASC/caspase-1 growth, X-gal OD620, 72 h; inhibition, % at 10 µM; hit rate 0.61% among 280,000; AID 2071; in the data active means inhibition mostly above about 24%, no sharp cut-off; inactive means mostly below about 32%
ALR inh – human ALR oxidase inhibition via reduced H2O2. P55789. purified ALR, DTT oxidation, H2O2 HRP-luminol luminescence. inhibition, % (no concentration beside the values). 290,000 tested, 3.8% active. AID 485317;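 active = mean and each replicate at 75% or more; inconclusive = only one of the two met; inactive = neither met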;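 also: stock transfer was 7.5 nL into about 7.5 µL; 0% = neutral wells and 100% = wells with inactivated enzyme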
MC4R ag barr – human MC4R agonism via beta-arrestin. activation, % at 8.9 µM. AID 540308. U2OS MC4R beta-arrestin complementation, luminescence; percent of melanotan II response, DMSO zero. hit rate 0.98% among 360,000. P32245;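 active means activation above a per-plate cutoff, the mean activation of sample wells on that plate plus 3 SD, cut at about 8% in these data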
UUG fidelity – modulators of yeast start codon fidelity, primary screen, whole organism, S. cerevisiae, single point, plate reader | AID 602363, 2012 | actives 0.13% (n = 350,000) | activity score, % at 18.7 µM | S. cerevisiae UUG-firefly luciferase reporter, luminescence/redox ratio;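 active means replicate mean at a twofold rise or more, about +100% in these data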;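 further: firefly luciferase made from a UUG start codon reports start codon fidelity; reporter light over untreated wells divided by growth signal over untreated wells; some hits fall short of that in this replicate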
MC4R barr conf – human MC4R beta-arrestin agonism confirmation | shares compounds with MC4R ag barr | U2OS MC4R beta-arrestin recruitment, luminescence; scaled DMSO 0%, Melanotan II 100% | activation, % at 8.9 µM | hit rate 31% among 2,400;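 active means mean activation across replicates above the hit cutoff set in the earlier primary screen, cut at about 8% in these data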
MOR DOR agonist – counter-screen for MC4R agonists: agonists of mu-delta opioid heterodimer | shares compounds with MC4R ag barr | U2OS PathHunter beta-arrestin, beta-gal luminescence; percent of deltorphin B response, DMSO zero | activation, % at 9.2 µM | hit rate 5.8% among 2,400 | AID 602194;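 active means mean activation across replicates exceeds the hit threshold derived in the earlier primary screen, cut at about 18% in these data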;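 further: 100% = deltorphin B at 0.9 µM final and 0% = DMSO alone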
* = called active by the depositor; x = not tested or not shown.

Keys: A = MC4R antag cAMP; B = HDAC3 inh; C = NALP1 yeast inh; D = ALR inh; E = MC4R ag barr; F = UUG fidelity; G = MC4R barr conf; H = MOR DOR agonist
Cc1noc(C)c1NC(=O)Nc1ccc2c(c1)C(=O)N([C@H](C)CO)C[C@@H](C)[C@H](CN(C)S(C)(=O)=O)O2
  A: x	B: x	C: x	D: x	E: x	F: -4.6	G: x	H: x
COc1ccccc1NC(=O)COC(=O)c1ccc2c(c1)OCCO2
  A: 9.3	B: 3.3	C: x	D: 0.5	E: 18.7*	F: -9.2	G: 3.1	H: 2.7
Cc1cccc(C(=O)OCC(=O)c2ccc3c(c2)OCCO3)c1O
  A: -0.9	B: -1.8	C: x	D: -11.9	E: 11.2*	F: -19.4	G: 2.6	H: 3.0
O=C(CC(=O)Nc1cc(Cl)ccc1Cl)Nc1cc(Cl)ccc1Cl
  A: 8.7	B: 5.3	C: 13.3	D: x	E: 15.2*	F: 0.6	G: 3.9	H: 5.1
NC(=O)Nc1cc(Cl)ccc1Cl
  A: -0.7	B: -2.2	C: 10.5	D: -2.2	E: -1.6	F: x	G: x	H: x
CCC(=O)N(C)C[C@@H]1Oc2ncc(-c3ccc(F)cc3)cc2C(=O)N([C@@H](C)CO)C[C@@H]1C
  A: x	B: x	C: x	D: x	E: x	F: -4.0	G: x	H: x
O=C(COC(=O)/C=C/c1cccc(Cl)c1)NC(=O)NCc1ccccc1
  A: 1.1	B: 0.2	C: x	D: 0.4	E: 11.4*	F: -12.2	G: 2.8	H: 5.4
O=C(COC(=O)/C=C/c1ccccc1Cl)NCCc1ccc(Cl)cc1Cl
  A: 17.1	B: 0.6	C: 8.4	D: 10.9	E: 9.9*	F: x	G: 0.7	H: 3.0
O=C(COC(=O)/C=C/c1ccc(Cl)cc1Cl)NCCC1=CCCCC1
  A: 4.3	B: x	C: 26.7	D: x	E: 0.2	F: x	G: x	H: x
Cc1cc(Br)cc(Cl)c1OCC(=O)NC(=O)NCc1ccccc1
  A: 2.0	B: -4.0	C: 27.8	D: -6.4	E: 11.5*	F: x	G: 2.1	H: 5.9
CCCNC(=O)Nc1ccc2c(c1)C(=O)N(C)[C@H]1CC[C@@H](CC(=O)O)O[C@H]1CO2
  A: x	B: x	C: x	D: x	E: x	F: -4.9	G: x	H: x
COc1ccc(NC(=O)c2ccc3[nH]c(C)c(C)c3c2)c(OC)c1
  A: 17.1	B: 3.8	C: 18.8	D: x	E: 1.6	F: -5.9	G: x	H: x
CCOc1ccccc1NC(=O)c1ccc2[nH]c(C)c(C)c2c1
  A: 11.4	B: 2.4	C: -0.8	D: -3.1	E: 11.6*	F: -11.2	G: 1.0	H: 8.1
O=C(Nc1cccnc1Cl)c1cc2c(s1)-c1ccccc1OC2
  A: 10.7	B: 7.0	C: 22.8	D: 1.6	E: 4.3	F: -16.6	G: x	H: x
O=C(Nc1ccc(Cl)cn1)c1cc2c(s1)-c1ccccc1OC2
  A: 6.9	B: x	C: -1.9	D: -2.8	E: 9.8*	F: -9.6	G: 8.3*	H: 3.1
COc1cc(C(=O)OCC(=O)NC(=O)NCc2ccccc2)ccc1OC(F)F
  A: -2.9	B: 0.0	C: x	D: -19.4	E: 9.7*	F: -12.9	G: 3.2	H: 7.8
CNC[C@@H]1Oc2ccc(NC(=O)Nc3cccc4ccccc34)cc2CC(=O)N([C@@H](C)CO)C[C@@H]1C
  A: x	B: x	C: x	D: x	E: x	F: 13.2	G: x	H: x
CCN(c1ccc(Cl)cc1)S(=O)(=O)c1nnc(NC(=O)C(C)C)s1
  A: -3.6	B: 7.6	C: 32.4	D: -5.5	E: 10.1*	F: -8.0	G: 0.8	H: 6.1
CCN(c1ccc(OC)cc1)S(=O)(=O)c1nnc(NC(=O)C2CCCCC2)s1
  A: 4.0	B: 7.0	C: -3.1	D: -2.1	E: 11.6*	F: -9.8	G: 1.1	H: 7.2
Cc1n[nH]c(C)c1S(=O)(=O)N(CC(=O)N1CCc2ccccc21)c1ccc(C(C)C)cc1
  A: -28.4	B: 4.6	C: -0.3	D: 9.7	E: 13.0*	F: -23.9	G: 7.6	H: 6.6
CCOc1ccc(N(CC(=O)N2CCc3ccccc32)S(=O)(=O)c2c(C)noc2C)cc1
  A: 5.7	B: -7.6	C: -6.4	D: -66.1	E: -1.5	F: -2.7	G: x	H: x
Cc1ccc([N+](=O)[O-])cc1NC(=S)NC(=O)c1c(Cl)cnn1C
  A: 20.6	B: x	C: 29.6	D: x	E: 18.3*	F: -11.3	G: -0.4	H: 4.3
COc1ccc(-c2oc3ccc(-c4ccc(OC)nc4)cc3c2-c2ccc(OC)cc2)cc1
  A: -1.0	B: -23.2	C: x	D: -8.3	E: -0.1	F: -16.4	G: x	H: x
COc1ccc(-c2ccc3oc(-c4ccc(OC)cc4)c(C#CCO)c3c2)cc1
  A: 13.8	B: -6.9	C: x	D: -8.5	E: 17.6*	F: -0.5	G: 14.9*	H: 5.1
COc1ccc(-c2oc3ccc(-c4ccc5c(c4)OCO5)cc3c2C#CC2(O)CCCCC2)cc1
  A: 8.4	B: -5.9	C: x	D: 14.2	E: 14.6*	F: -15.8	G: 16.8*	H: 4.0
COc1ccc(-c2oc3ccc(N4CCOCC4)cc3c2C#CCO)cc1
  A: 19.5	B: -7.6	C: x	D: -5.0	E: 0.8	F: -6.6	G: x	H: x
COc1ccc(-c2sc3cc(OC)c(OC)cc3c2C#CCO)cc1
  A: 7.3	B: x	C: x	D: x	E: 17.7*	F: 46.9	G: 16.1*	H: 14.9
COc1ccc(-c2sc3cc4c(cc3c2C#CC2(O)CCCCC2)OCO4)cc1
  A: 0.8	B: 0.4	C: x	D: -21.8	E: -0.2	F: 3.8	G: x	H: x
COc1ccc(-c2oc3ccc(-c4ccc(OC)nc4)cc3c2C#CC2(O)CCCCC2)cc1
  A: 11.4	B: -5.1	C: -70.3	D: -8.0	E: 13.3*	F: -20.1	G: 11.4*	H: 4.2
CO[C@H]1CN(C)C(=O)c2ccc(NC(=O)NC(C)C)cc2OC[C@@H](C)N(Cc2ccccc2)C[C@H]1C
  A: x	B: x	C: x	D: x	E: x	F: -1.9	G: x	H: x

Compounds above with two or more sulfur atoms:
Keys: A = MC4R antag cAMP; B = HDAC3 inh; C = NALP1 yeast inh; D = ALR inh; E = MC4R ag barr; F = UUG fidelity; G = MC4R barr conf; H = MOR DOR agonist
CCN(c1ccc(Cl)cc1)S(=O)(=O)c1nnc(NC(=O)C(C)C)s1
  A: -3.6	B: 7.6	C: 32.4	D: -5.5	E: 10.1*	F: -8.0	G: 0.8	H: 6.1
CCN(c1ccc(OC)cc1)S(=O)(=O)c1nnc(NC(=O)C2CCCCC2)s1
  A: 4.0	B: 7.0	C: -3.1	D: -2.1	E: 11.6*	F: -9.8	G: 1.1	H: 7.2

Next part
Keys: A = MC4R antag cAMP; B = HDAC3 inh; C = NALP1 yeast inh; D = ALR inh; E = MC4R ag barr; F = UUG fidelity; G = MC4R barr conf; H = MOR DOR agonist
C[C@@H]1CN([C@H](C)CO)C(=O)Cc2cc(NC(=O)C3CCCCC3)ccc2O[C@@H]1CN(C)C(=O)Nc1ccc(F)cc1
  A: x	B: x	C: x	D: x	E: x	F: 0.5	G: x	H: x
Cc1noc(C)c1COc1cccc(C(=O)OCC(=O)NC(=O)c2ccc(OC(F)F)cc2)c1
  A: 6.0	B: -6.7	C: 32.2	D: -8.1	E: 24.8*	F: -13.5	G: 5.8	H: 4.2
CC(C)NC(=O)NC(=O)COC(=O)c1cccc(OC(F)F)c1
  A: 16.4	B: -2.8	C: 16.0	D: 0.4	E: -3.5	F: x	G: x	H: x
CC(C)=C[C@@H]1C[C@H](C)[C@H]2CC[C@H](C)c3c(O[C@@H]4O[C@@H](C)[C@@H](O)[C@@H](O)[C@@H]4O)c(O)c(C)c1c32
  A: 7.0	B: 4.0	C: x	D: 2.8	E: 0.7	F: 0.6	G: x	H: x
CC(C)=C[C@H]1C[C@H](C)[C@H]2CC[C@H](C)c3c(O)c(O[C@H]4OC[C@H](O)[C@@H](O)[C@@H]4O)c(C)c1c32
  A: -4.6	B: x	C: x	D: x	E: 12.4*	F: 6.9	G: 3.8	H: 1.8
S=c1[nH]nc(COc2ccccc2)n1/N=C/c1c(Cl)cccc1Cl
  A: 6.2	B: 10.3	C: -1.1	D: x	E: 11.2*	F: -5.5	G: 1.5	H: 4.0
COc1ccccc1-c1ccc([C@@H]2[C@@H](C#N)N(C(=O)NC(C)C)[C@@H]2CO)cc1
  A: x	B: x	C: x	D: x	E: x	F: 6.5	G: x	H: x
COc1ccc(NC(=O)/C=C/C(=O)O)c([N+](=O)[O-])c1
  A: 4.1	B: 11.1	C: 10.2	D: 16.9	E: -0.7	F: -29.4	G: x	H: x
CCOc1ccc(N/C=C/C(=O)c2ccccc2)c([N+](=O)[O-])c1
  A: -12.4	B: -0.9	C: 51.3*	D: -27.3	E: 27.1*	F: x	G: 3.7	H: 3.0
CCOc1ccc(NC(=O)/C=C/c2ccccc2)c([N+](=O)[O-])c1
  A: -9.2	B: 2.0	C: 45.5	D: -11.6	E: 12.9*	F: x	G: 2.5	H: 9.0
O=C(NCC[C@H]1CC[C@H](NC(=O)C2CCCC2)[C@@H](CO)O1)Nc1ccc(Cl)cc1
  A: x	B: x	C: x	D: x	E: x	F: 2.4	G: x	H: x
C[C@@H](O)C#Cc1ccc([C@H]2[C@H](CO)N3CCCCN(CC4CCOCC4)C[C@@H]23)cc1
  A: x	B: x	C: x	D: x	E: x	F: 37.9	G: x	H: x
